One data set concerns CYP2C19. As to the kind of experiment: dosing recommendation per CYP2C19 metabolizer subgroup as percentage of usual population dose (Equations 4-6). The text has this:
Assuming the goal is to maintain the same AUC for all three subpopulations of patients, the following subpopulation dosing relationships hold: DPM=DEM*(AUCEM/AUCPM) OR DPM=DEM*R if R=(AUCEM/AUCPM) (Equation 2) DIM=DEM*(AUCEM/AUCIM) OR DIM=DEM*S if S=(AUCEM/AUCIM) (Equation 3)
By substituting equations 2 and 3 into equation 1, and then rearranging the equation to solve for the percent dose adjustment needed for each subgroup relative to the population dose: DEM(%)=100/(fEM+fIM*S+fPM*R) (Equation 4) DPM(%)=R*DEM (Equation 5) DIM(%)=S*DEM (Equation 6) Equations 4, 5, and 6 show how the dosing for the more homogeneous subgroups is determined and how the dosing results are expressed as a fraction of the clinician's usual heterogeneous whole group dosages. Determining “Minimal Dose Adjustment Units”
Example: The approach in the previous section leads to individualized initial drug dose recommendations for each of the 3 subgroups (extensive, poor and intermediate metabolizers). Each subgroup represents a specific number of functional alleles for the specific DME (extensive metabolizers have 2 functional, intermediate metabolizers have 1 functional and poor metabolizers have 0 functional). The resultant dosing recommendations are expressed as percentages of the clinician's usual starting dose. It is possible to investigate the effect of increasing numbers of non-functional alleles using these new dosing recommendations. For example, if DRX % is the dosing recommendation for subgroup X expressed as a percentage of the clinician's usual starting dose then the following are true: Effect of […] 1 non-functional allele=(DREM %−DRIM %)/DREM % Effect of 2 non-functional allele=(DREM %−DRPM %)/DREM % Below is a spreadsheet (Table 3) that examines this for CYP2D6, CYP2C19 and CYP2C9. […] 2C9 has 2 MDA units per non-functional allele.

Each structure is given as a SMILES string. Where two headings read alike, the source gives them in different places.

`Cc1cc2c(s1)Nc1ccccc1N=C2N1CCN(C)CC1` [olanzapine]: in the data set with CYP2D6 (human), the “1 al (effect of 1 non-functional allele)” value is reported as 0.14, the “2 al (effect of 2 non-functional alleles)” value amounted to 0.50, the “2 al/1 al” value was determined as 3.59 and the “EM (%) dosing recommendation” value was 122%. Further, in the data set on CYP2D6 (human), the “IM (%) dosing recommendation” value was found to be 105%, the “PM (%) dosing recommendation” value is recorded as 61% and the “UM (%) dosing recommendation” value was 139%.
For `CN(C)CCCN1c2ccccc2CCc2ccccc21` [imipramine], the “1 al (effect of 1 non-functional allele)” value with CYP2D6 (CYP2D6, (DREM%-DRIM%)/DREM%) is 0.40; in the data set on CYP2C19 (CYP2C19), 0.23. Also, the “2 al (effect of 2 non-functional alleles)” value was found to be 0.79 with CYP2D6 (CYP2D6, (DREM%-DRPM%)/DREM%) and 0.46 in the data set with CYP2C19 (CYP2C19). The “2 al/1 al” value with CYP2D6 (CYP2D6, ratio of the two effects) turned out to be 1.98; in the data set on CYP2C19 (CYP2C19, ratio of the two effects) it was 2.00. Moreover, the “EM (%) dosing recommendation” value with CYP2D6 (CYP2D6 extensive metabolizers, percent of usual dose) is 131%. Also, the “IM (%) dosing recommendation” value with CYP2D6 (CYP2D6 intermediate metabolizers, percent of usual dose) came out at 79%; in the data set on CYP2C19 (CYP2C19 intermediate metabolizers, percent of usual dose), 83%. Besides, the “PM (%) dosing recommendation” value in the data set on CYP2D6 (CYP2D6 poor metabolizers, percent of usual dose) is recorded as 28%; with CYP2C19 (CYP2C19 poor metabolizers, percent of usual dose), 58%. Moreover, the “UM (%) dosing recommendation” value in the data set on CYP2D6 (CYP2D6 ultrarapid metabolizers, percent of usual dose) is recorded as 182%.
Turning to `Cc1nc2n(c(=O)c1CCN1CCC(c3noc4cc(F)ccc34)CC1)CCCC2` [risperidone], in the data set on CYP2D6 (human), the “2 al (effect of 2 non-functional alleles)” value is reported as 0.18, the “2 al/1 al” value was 1.90, the “EM (%) dosing recommendation” value amounted to 106% and the “IM (%) dosing recommendation” value was determined as 96%. Also, in the data set with CYP2D6 (human), the “PM (%) dosing recommendation” value was 87% and the “UM (%) dosing recommendation” value is on record as 116%.

The values above are taken from patent publication US8589175B2, “Optimization and individualization of medication selection and dosing” (Children's Hospital Medical Center, priority 2005, dated 2013).
